Results from patent US20060141496A1, “Method of screening substance interacting with ABC protein” (priority 2003, published 2006).

Amino acid sequences for entries named in this document (tags omitted).
UniProt P08183, whole entry: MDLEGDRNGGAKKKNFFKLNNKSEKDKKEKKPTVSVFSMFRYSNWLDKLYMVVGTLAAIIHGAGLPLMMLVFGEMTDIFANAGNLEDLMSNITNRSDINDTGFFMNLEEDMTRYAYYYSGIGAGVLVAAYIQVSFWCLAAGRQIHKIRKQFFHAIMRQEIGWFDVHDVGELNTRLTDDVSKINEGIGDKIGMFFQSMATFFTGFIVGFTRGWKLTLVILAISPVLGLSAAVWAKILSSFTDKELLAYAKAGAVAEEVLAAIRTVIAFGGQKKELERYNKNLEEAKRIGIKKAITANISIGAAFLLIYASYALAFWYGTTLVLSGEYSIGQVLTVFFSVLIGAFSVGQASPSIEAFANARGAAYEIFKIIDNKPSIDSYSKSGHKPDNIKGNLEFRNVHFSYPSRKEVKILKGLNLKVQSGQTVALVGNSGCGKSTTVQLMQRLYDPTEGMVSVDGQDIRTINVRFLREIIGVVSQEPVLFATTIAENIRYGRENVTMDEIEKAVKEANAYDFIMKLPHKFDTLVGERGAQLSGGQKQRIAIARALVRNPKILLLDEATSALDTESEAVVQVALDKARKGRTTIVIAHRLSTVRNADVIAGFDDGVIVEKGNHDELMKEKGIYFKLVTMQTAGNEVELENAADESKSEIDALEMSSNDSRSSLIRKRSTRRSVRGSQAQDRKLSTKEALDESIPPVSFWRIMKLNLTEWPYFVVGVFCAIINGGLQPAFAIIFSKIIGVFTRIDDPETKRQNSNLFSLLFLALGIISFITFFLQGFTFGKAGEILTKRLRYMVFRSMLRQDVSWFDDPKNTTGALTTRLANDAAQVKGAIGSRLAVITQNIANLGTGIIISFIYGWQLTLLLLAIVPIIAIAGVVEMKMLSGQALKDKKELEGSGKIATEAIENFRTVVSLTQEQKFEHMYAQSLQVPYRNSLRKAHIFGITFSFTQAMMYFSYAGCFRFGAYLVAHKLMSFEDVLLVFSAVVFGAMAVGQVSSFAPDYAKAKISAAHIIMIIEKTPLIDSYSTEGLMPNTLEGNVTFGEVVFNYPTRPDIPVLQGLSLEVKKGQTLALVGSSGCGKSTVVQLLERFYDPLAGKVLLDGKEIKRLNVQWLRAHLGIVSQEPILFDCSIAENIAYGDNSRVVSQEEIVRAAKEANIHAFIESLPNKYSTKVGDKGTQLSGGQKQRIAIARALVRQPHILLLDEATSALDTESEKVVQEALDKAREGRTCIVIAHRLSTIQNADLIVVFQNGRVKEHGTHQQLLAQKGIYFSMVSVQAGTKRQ

Molecular target: human P-glycoprotein (Pgp or MDR 1) expressing membrane (Homo sapiens, UniProt P08183)
Conditions: substrate 0.05 mM; reaction time 5 minutes; 37° C.; background of control membrane subtracted; FIG. 4

[3H] ADP binding activity compared to P-glycoprotein-expressing membrane without substrate: significant increase
SMILES: C[C@H]1O[C@@H](O[C@H]2[C@@H](O)C[C@H](O[C@H]3[C@@H](O)C[C@H](O[C@H]4CC[C@@]5(C)[C@H](CC[C@@H]6[C@@H]5C[C@@H](O)[C@]5(C)[C@@H](C7=CC(=O)OC7)CC[C@]65O)C4)O[C@@H]3C)O[C@@H]2C)C[C@H](O)[C@@H]1O [Digoxin]
